Source: US20250312310A1, “Beta2-adrenergic receptor antagonists for use in treating diabetes or obesity” (NovelYeast bv, priority 2021, published 2025)

Chains of the proteins cited; added tags and fusions are not shown.
UniProt P07550, whole entry: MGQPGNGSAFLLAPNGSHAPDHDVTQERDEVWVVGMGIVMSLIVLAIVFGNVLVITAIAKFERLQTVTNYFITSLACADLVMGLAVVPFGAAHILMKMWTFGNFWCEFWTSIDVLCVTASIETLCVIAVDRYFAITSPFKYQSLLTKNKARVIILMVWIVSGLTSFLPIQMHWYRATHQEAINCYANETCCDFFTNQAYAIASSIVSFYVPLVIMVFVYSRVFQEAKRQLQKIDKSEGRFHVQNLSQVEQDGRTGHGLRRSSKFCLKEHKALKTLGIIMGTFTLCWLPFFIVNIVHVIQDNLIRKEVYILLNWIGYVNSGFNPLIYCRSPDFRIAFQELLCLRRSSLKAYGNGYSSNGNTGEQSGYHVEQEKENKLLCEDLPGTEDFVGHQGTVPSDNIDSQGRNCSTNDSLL

Target: human β2-AR (Homo sapiens, UniProt P07550)
Experiment: Calcium response (Fluo-4) in Flp-In-293 cells stably transfected with ADRB2 and GNA15
Format: cell-based
Settings: for % INHIBTION: inhibitor 33.33 microM, 45 min pre-incubation; for % INHIBTION / IC50 / % INHIBITION: epinephrine 5 nM; for IC50: read-out: IC50 (microM); for Ki: read-out: Ki (microM)
[1] = calculated from IC50, [A] and EC50 (0.001 nM)
[2] = second CD3 compounds overview table

| Compound | % INHIBTION [%] | IC50 [µM] | Ki [1] [nM] | IC50 [2] [µM] | % INHIBITION [2] [%] | Ki [2] [nM] |
| --- | --- | --- | --- | --- | --- | --- |
| CC(C)(CNCC(O)COc1ccccc1)CNCC(O)COc1ccccc1 (stereo not shown) | 96 | 2.3 | 0.46 | – | – | – |
| OC(CNCc1ccccc1)COc1ccc(OCC(O)CNCc2ccccc2)cc1 (stereo not shown) | – | – | – | 44 | 72 | – |
| CC(C)(C)NCC(O)COc1cccc2[nH]cc(CC(=O)NN)c12 (racemic) [CD3 X] | – | – | – | 0.07 | 95 | 0.014 |
| CC(NCC(O)COc1ccc(C#N)cc1)c1ccc(S(N)(=O)=O)cc1 (stereo not shown) | 51 | 28 | 6.6 | – | – | – |
| Cc1cc(OCC(O)CNCCc2ccc(Cl)cc2Cl)c(C(C)C)cc1Cl (stereo not shown) | 96 | 0.5 | – | – | – | – |
| Cc1ccccc1OCC(O)CNCc1cccc(CNCC(O)COc2ccccc2C)c1 (stereo not shown) | 100 | 0.71 | 0.142 | – | – | – |
| OC(CNCCc1ccccc1)COc1ccc(OCC(O)CNCCc2ccccc2)cc1 (stereo not shown) | 67 | 18.5 | 3.72 | – | – | – |

Like-named read-outs stand apart in the source and are kept apart here.
